Legend:
[1] = test system: Na/K ATPase in LLC-PK1 and HK2 cells; assay: Planned Na/K ATPase expression and activity studies in cultured renal epithelial cells; details: expected result
AT4 receptor = AT4 receptor (Homo sapiens, UniProt Q9UIQ6); details: AT4 receptor binding; cited from earlier work

By UniProt entry, the sequences of proteins in these tests, tags left out.
UniProt Q9UIQ6, whole entry: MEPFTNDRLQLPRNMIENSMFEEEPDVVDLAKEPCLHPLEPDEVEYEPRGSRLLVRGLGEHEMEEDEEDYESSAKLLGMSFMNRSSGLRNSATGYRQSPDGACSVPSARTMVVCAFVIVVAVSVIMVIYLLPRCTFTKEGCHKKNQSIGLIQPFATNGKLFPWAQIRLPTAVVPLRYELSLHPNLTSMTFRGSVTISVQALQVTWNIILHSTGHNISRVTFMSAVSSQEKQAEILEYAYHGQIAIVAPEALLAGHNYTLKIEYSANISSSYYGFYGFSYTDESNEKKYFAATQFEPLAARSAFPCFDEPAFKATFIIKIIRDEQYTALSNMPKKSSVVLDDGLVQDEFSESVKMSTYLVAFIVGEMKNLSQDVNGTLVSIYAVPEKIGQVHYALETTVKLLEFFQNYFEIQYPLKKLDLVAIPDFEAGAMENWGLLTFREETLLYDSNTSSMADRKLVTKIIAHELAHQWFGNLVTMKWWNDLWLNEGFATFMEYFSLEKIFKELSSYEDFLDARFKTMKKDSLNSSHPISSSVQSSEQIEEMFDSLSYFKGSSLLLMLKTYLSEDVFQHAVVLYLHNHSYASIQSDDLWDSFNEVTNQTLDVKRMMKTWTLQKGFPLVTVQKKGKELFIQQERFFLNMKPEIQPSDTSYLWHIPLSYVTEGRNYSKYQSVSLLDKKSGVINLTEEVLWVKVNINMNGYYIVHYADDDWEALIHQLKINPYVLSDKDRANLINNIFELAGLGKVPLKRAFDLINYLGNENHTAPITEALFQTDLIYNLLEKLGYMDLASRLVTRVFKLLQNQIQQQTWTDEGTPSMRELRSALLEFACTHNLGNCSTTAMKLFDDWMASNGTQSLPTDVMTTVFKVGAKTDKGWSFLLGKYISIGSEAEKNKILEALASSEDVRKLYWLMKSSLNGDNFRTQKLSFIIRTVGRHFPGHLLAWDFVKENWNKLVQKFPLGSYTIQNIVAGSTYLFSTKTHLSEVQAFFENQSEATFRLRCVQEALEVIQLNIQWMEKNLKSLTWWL

Question: Which results are given for `CC(C)[C@H](N)CN[C@@H](Cc1ccc(O)cc1)C(=O)N[C@H](CN[C@@H](Cc1cnc[nH]1)C(=O)N1CCC[C@H]1C(=O)N[C@@H](Cc1ccccc1)C(=O)O)C(C)C`?
Answer: regulation of Na/K ATPase by APN [1]: reduce regulation; Bmax (AT4 receptor): 508+/−30 fmol/mg protein; Kd (AT4 receptor): 3 nM

From patent publication US20080026409A1, “SALT-SENSITIVE HYPERTENSION” (THE BOARD OF TRUSTEES OF THE UNIVERSITY OF ILLINOIS, priority 2006, published 2008)
